{
  "source": "patent US7122668B2",
  "about": "“Platinum complexes and their use in therapy” (priority 2002, dated 2006)",
  "experiment": "In vivo toxicity",
  "design": "species or system BALB/C mice",
  "settings": "20 mg/kg",
  "data": [
    {"substance": "Trans-[PtCl2(4-picoline)(piperazine)].HCl [Complex 13]", "values": [
      {"measurement": "toxicity (animal weight and survival)", "value": "non-toxic"}
    ]}
  ]
}
